Data as given in US4933332A, “11-desoxy-17-α-hydroxycorticosterone derivatives” (priority 1988, dated 1990).

Tests used:
[1] = test system: L 1210; assay: Antitumor effect on grafted hemoblastoses (L 1210), extension of lifespan; assay type: in vivo, mice and rats; conditions: days 2-6 after grafting, effective dose range per compound, 24 h × 5
[2] = test system: P-388; assay: Antitumor effect on grafted hemoblastoses (P-388), extension of lifespan; assay type: in vivo, mice and rats; conditions: days 2-6 after grafting, effective dose range per compound, 24 h × 5
[3] = test system: MOPG-406; assay: Antitumor effect on grafted hemoblastoses (MOPC-406), extension of lifespan; assay type: in vivo, mice and rats; conditions: days 2-6 after grafting, effective dose range per compound, 24 h × 5
[4] = test system: Viral leukosis Mazurenko LMC-1; assay: Antitumor effect on grafted hemoblastoses (LMC-1), extension of lifespan; assay type: in vivo, mice and rats; conditions: days 2-6 after grafting, effective dose range per compound, 24 h × 5
[5] = test system: Ca-755; assay: Antitumor effect on grafted solid tumor Ca-755; assay type: in vivo, mice and rats; conditions: days 2-6, effective dose range per compound, 24 h × 5, "+" = stimulation of tumor growth
[6] = test system: S-37; assay: Antitumor effect on grafted solid tumor S-37; assay type: in vivo, mice and rats; conditions: days 2-6, effective dose range per compound, 24 h × 5
[7] = test system: S-180; assay: Antitumor effect on grafted solid tumor S-180; assay type: in vivo, mice and rats; conditions: days 2-6, effective dose range per compound, 24 h × 5, "+" = stimulation of tumor growth
[8] = test system: Hepatoma G-60; assay: Antitumor effect on grafted hepatoma G-60; assay type: in vivo, mice and rats; conditions: days 6-10, effective dose range per compound, 24 h × 5
[9] = test system: Hepatoma G-61; assay: Antitumor effect on grafted hepatoma G-61; assay type: in vivo, mice and rats; conditions: days 7-11, effective dose range per compound, 24 h × 5
[10] = test system: Alveolar mammary cancer RMK-1; assay: Antitumor effect on grafted alveolar mammary cancer RMK-1; assay type: in vivo, mice and rats; conditions: days 3-7, effective dose range per compound, 24 h × 5, "+" = stimulation of tumor growth
[11] = test system: La; conditions: days 1-5 after grafting, effective dose range per compound, 24 h × 5

Compound: O=C(O)Cc1ccc(N(CCCl)CCCl)cc1
- Extension of the lifespan of the animals (ELA) [1]: 15%
- Extension of the lifespan of the animals (ELA) [2]: 87%
- Extension of the lifespan of the animals (ELA) [3]: 41%
- Extension of the lifespan of the animals (ELA) [4]: 9%
- Maximum tumor growth inhibition [5]: 87%
- Maximum tumor growth inhibition [6]: 94%
- Maximum tumor growth inhibition [7]: 56%
- Maximum tumor growth inhibition [8]: 86%
- Maximum tumor growth inhibition [9]: 53%
- Maximum tumor growth inhibition [10]: 27%
- Extension of the lifespan of the animals (ELA) [11]: 46%
